Data on 1 molecule can be found in patent publication US20200308624A1, “Phosphate and tensin homolog (PTEN) for the detection of autoimmune diseases or conditions” (Universitätsmedizin der Johannes Gutenberg-Universität Mainz, priority 2019, published 2020).

What all share (format): in vivo, human
For test [1], the system named is T cells from MS patients. The test is described as follows: IFN-β therapy of MS patients: Treg-mediated suppression of patients' T cells (3H-Tdr). The following applies: IFN-β-treated MS patients vs therapy-naive MS and HC. The method, then:
(§1) A) Treg-depleted PBMC from therapy-naive (red), IFN-β-treated MS patients (blue) or HC (black) were cocultured with allogeneic Treg and stimulated with anti-CD3 mAb. T cell proliferation was determined by ^3H-Tdr incorporation on day three. Box plots show percentage of suppression in presence of Treg (ratio 1:1) normalized to proliferation of PBMC alone as median with interquartile range (n=15), p-values relative to suppression of HC or therapy-naïve MS, to avoid familywise error rate bonferroni correction was used indicated as (p*). B) PKB/c-Akt phosphorylation was determined by flow cytometry within CD3+ T cells from therapy-naive (red), IFN-β-treated MS patients (blue) or HC (black). Grey histogram depicts isotypic control of MS. […] C) IL-6R expression within PBMC from HC (black), therapy-naive (red), or IFN-β-treated (blue) MS patients was determined by flow cytometry. Box plots show percentage of IL-6R^+ cells within CD3^+ T cells of six independent donors, p-values relative to IL-6R expression of therapy-naïve MS or HC are shown. […]
CD4^+CD25^− T cells (10^5 cells/well, 96 well plate, flat bottom) were stimulated with 0.1 μg/ml anti-CD3 mAb (OKT-3) and cultured in presence or absence of different Treg ratios. […] T cell proliferation was measured by ^3H-Tdr incorporation using a liquid […] counter. […]

The test system of test [2] is PKB/c-Akt. The test is described as follows: IFN-β therapy of MS patients: PKB/c-Akt phosphorylation in CD3+ T cells (flow cytometry). The following applies: IFN-β-treated MS patients, similar to healthy controls. The method, then:
as §1, with “(black).” for “(black). Grey histogram depicts isotypic control of MS.”, “cytometry.” for “cytometry. Box plots show percentage of IL-6R^+ cells within CD3^+ T cells of six independent donors, p-values relative to IL-6R expression of therapy-naïve MS or HC are shown.”
(§2) Flow cytometric analysis was performed using the following antibodies: anti-human CD3 (UCHT1), anti-human CD4 (RPA-T4), anti-human CD8 (SK1), anti-human CD14 (M5E2), anti-human CD19 (HIB19), all from BD Pharmingen, anti-human CD25 (4E3), anti-human CD127 (MB15-18C9), all from Miltenyi Biotec. […] Cell viability during flow cytometric analysis was determined using 7-AAD and eFluor506 (eBioscience). […] Stained cells were measured on LSRII with FACS Diva Software (BD Bioscience) or FACSVia™ and data was analyzed with BD FACSVia Research Software (BD Biosciences). […]
On the technique in general: Flow cytometry measures light scatter and fluorescence of single cells or particles in a stream.

Test [3] has as its system IL-6 receptor. Put plainly: IFN-β therapy of MS patients: IL-6R expression in CD3+ T cells (flow cytometry). The following applies: IFN-β-treated MS patients, similar to healthy controls. The method, then: as §1, with “(black).” for “(black). Grey histogram depicts isotypic control of MS.”, “cytometry.” for “cytometry. Box plots show percentage of IL-6R^+ cells within CD3^+ T cells of six independent donors, p-values relative to IL-6R expression of therapy-naïve MS or HC are shown.”
as §2

“Also recorded” adds a separate entry of the source.

B1: IFN-β: IFN-β therapy of MS patients (protein, UniProt P01574 22-187, looked up)
Interferon beta: MSYNLLGFLQRSSNFQCQKLLWQLNGRLEYCLKDRMNFDIPEEIKQLQQFQKEDAALTIYEMLQNIFAIFRQDSSSTGWNETIVENLLANVYHQINHLKTVLEEKLEKEDFTRGKLMSSLHLKRYYGRILHYLKAKEYSHCAWTIVRVEILRNFYFINRLTGYLRN
With B1, the “susceptibility of CD4+ T cells towards Treg-mediated immunoregulation” value in test [1] is “improves responsiveness of T cells; also recorded: restores susceptibility of CD4+ T cells towards Treg-mediated immunoregulation”. Further, the PKB activity entry in test [2] is reported as “normalization”. Further, in test [3], the IL-6 receptor expression entry is recorded as “normalization”.
